{"sequences": {"note": "Sequences of proteins named here, by UniProt entry; tags and fusion partners are left off.", "UniProt Q02293, whole entry": "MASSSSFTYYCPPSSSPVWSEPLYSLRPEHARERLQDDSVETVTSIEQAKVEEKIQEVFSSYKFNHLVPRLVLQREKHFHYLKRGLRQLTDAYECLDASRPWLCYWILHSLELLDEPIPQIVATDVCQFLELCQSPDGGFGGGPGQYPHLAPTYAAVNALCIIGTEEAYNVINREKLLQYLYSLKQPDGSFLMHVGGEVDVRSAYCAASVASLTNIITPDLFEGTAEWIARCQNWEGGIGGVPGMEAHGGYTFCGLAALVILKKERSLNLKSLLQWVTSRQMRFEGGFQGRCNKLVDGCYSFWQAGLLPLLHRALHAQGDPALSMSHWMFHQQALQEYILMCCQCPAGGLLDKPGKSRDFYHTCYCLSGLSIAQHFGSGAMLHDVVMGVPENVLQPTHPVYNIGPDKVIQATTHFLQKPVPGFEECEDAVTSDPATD"}, "source": "patent US6410541B2", "about": "“Compounds useful for inhibition of farnesyl protein transferase” (Schering Corporation, priority 1997, dated 2002)", "target": "farnesyl protein transferase (UniProt Q02293+Q04631)", "test": "FPT IC50 (inhibition of farnesyl protein transferase, in vitro enzyme assay)", "format": "biochemical", "conditions": "read-out: FPT IC50; in vitro enzyme assay per WO 95/10516", "experimental": "FPT IC50 (inhibition of farnesyl protein transferase, in vitro enzyme assay) and COS Cell IC50 (Cell-Based Assay) were determined following the assay procedures described in WO 95/10516, published Apr. 20. 1995. GGFT IC50 (inhibition of geranylgeranyl protein transferase, in vitro enzyme assay), Cell Mat Assay, and anti-tumor activity (in vivo anti-tumor studies) could be determined by the assay procedures described in WO 95/10516. The disclosure of WO 95/10516 is incorporated herein by reference thereto.\nIn Table 10, “nM” represents nanomolar."}
{"smiles": "COc1ccc2c(c1)CC(CC(=O)N1CCC([C@H]3c4ncc(Br)cc4CCc4cc(Cl)cc(Br)c43)CC1)C2=O", "note": "(single isomer, unassigned)", "values": [{"measurement": "IC50", "value": 0.17, "unit": "µM"}]}
